# Tested on: MDCK cells
# Assay: Cytotoxicity to MDCK cells (MTS-based assay)
# Type: cell-based, canine
# Conditions: 48 h, read-out: CC50 (50% cytotoxic concentration)
# Experimental: An MTS-based assay was performed to evaluate the cytotoxic effects of the test compounds on MDCK cells. Approximately 5 × 10^4 cells/well were seeded in 96-well microplates in MEM with 10% FBS at 37 °C in a humidified 5% CO2 incubator. When the monolayer was confluent, the cells were washed twice with PBS and then treated with compounds diluted in serum-free MEM. After incubation at 37 °C for 48 h, 20 μL of MTS was added to each well, and the cells were incubated for 2 h. The absorbance at 490 nm was determined using a microplate reader. The cell viability was calculated using the following formula: cell viability (%) = (drug treatment – background)/(control – background) × 100%. The half-maximal cytotoxic concentration (CC50) of the compounds was defined as the concentration that reduced the A490 of compound-treated cells to 50% of that of untreated cells.
substance,measurement,value
"2,2′–dyhydroxyl-4,4′,7,7′-9′,10′-dihydro-1,6′-di-phenanthrene [Compound 11]",CC50,119 ± 19.6 µM

# From paper PMC5441103, “Antiviral activity of phenanthrenes from the medicinal plant Bletilla striata against influenza A virus” (BMC Complementary and Alternative Medicine, 2017)
